{
  "source": "ChEMBL document CHEMBL5154889",
  "about": "“Development of Novel IP6K Inhibitors for the Treatment of Obesity and Obesity-Induced Metabolic Dysfunctions” (J Med Chem, 2022)",
  "biological_target": "T1, Inositol hexakisphosphate kinase 3 (Homo sapiens, UniProt Q96PC2)",
  "T1 sequence (Q96PC2 whole entry)": "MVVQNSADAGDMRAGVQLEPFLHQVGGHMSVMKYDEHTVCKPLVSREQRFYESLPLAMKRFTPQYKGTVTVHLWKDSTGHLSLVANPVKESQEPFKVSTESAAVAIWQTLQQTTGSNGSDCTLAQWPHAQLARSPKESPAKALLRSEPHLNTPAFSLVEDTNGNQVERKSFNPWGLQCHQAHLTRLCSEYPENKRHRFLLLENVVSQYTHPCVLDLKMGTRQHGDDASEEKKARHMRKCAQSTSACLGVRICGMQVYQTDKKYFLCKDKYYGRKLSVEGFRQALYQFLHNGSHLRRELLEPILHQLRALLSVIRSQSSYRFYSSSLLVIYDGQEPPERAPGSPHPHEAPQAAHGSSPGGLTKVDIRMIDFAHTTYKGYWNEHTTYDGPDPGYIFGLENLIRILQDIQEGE",
  "assay": "Inhibition of N-terminal 6His-sumo-tagged recombinant human IP6K3 expressed in Escherichia coli assessed as inorganic phosphate release using InsP6 as substrate in presence of ATP measured after 60 to 120 mins by malachite green based colorimetric - DIPP1 coupled enzyme assay",
  "data": [
    {"compound": "Cc1ccc(-c2onc3ccc(C(=O)O)cc23)cc1", "values": [
      {"measurement": "IC50", "result": 7.81, "unit": "µM"}
    ]}
  ]
}
